Assay: Polymerization time of human serum albumin/glutaraldehyde mixtures in vitro (tube inversion)
Assay type: physicochemical
Conditions: at similar concentrations, with GA
Procedure: In order to measure polymerization times, as described above, an albumin mixture (0.9 mL), which may include polyvinylpyrrolidone or dextran, was prepared in 2 mL microfuge tube. A glutaraldehyde mixture (0.1 mL) was then added. The combination was mixed for 5 seconds with Vortex. The microfuge tube inverted every 3 to 15 seconds. Polymerization time recorded when mixture no longer deforms visibly with inversion.
Serial dilutions of GA were combined with a fixed concentration of HSA to assess the effects of GA concentration on polymerization time. GA at concentrations from 0.25 to 0.5% GA was polymerized with 22.5% albumin (Note: all concentrations are listed as concentration after final mixing). The experiments were repeated with the addition of 4.5 or 9% PVP.

Substance: HSA: 25% Human serum albumin (Baxter 1500233)
- polymerization speed compared with BSA: polymerize more quickly than BSA
